Experimental data taken from patent US8946302B2, “Selective sigma-1 receptor ligands” (Wisconsin Alumni Research Foundation, priority 2008, dated 2015).

The chains behind the UniProt entries cited, without tags or fusion partners.
UniProt Q60492, whole entry: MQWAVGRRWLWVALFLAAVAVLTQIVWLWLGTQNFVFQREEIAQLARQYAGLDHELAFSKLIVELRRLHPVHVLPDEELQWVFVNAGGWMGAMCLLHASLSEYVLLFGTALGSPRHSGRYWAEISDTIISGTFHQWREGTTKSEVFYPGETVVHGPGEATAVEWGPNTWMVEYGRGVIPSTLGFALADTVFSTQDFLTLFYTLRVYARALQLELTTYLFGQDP

Molecular target: T1, σ-1 Sites (Cavia porcellus, UniProt Q60492)
T1 construct: from tissue
Test: σ-1 sites radioligand binding, guinea pig liver membranes (Table 2)
Conditions: σ-2 rat liver / σ-1 guinea pig liver membranes

Compound	σ-1 selectivity σ-2 Ki/σ-1 Ki
CCCCCCCNCCCc1ccccc1 [Compound 1c, N-(3-Phenylpropyl)heptane-1-amine]	2
CCCCCCCCCCCCNCCCc1ccccc1 [Compound 1e, N-(3-Phenylpropyl)dodecan-1-amine]	0.4
CCCCCCCCCCCCNCCCc1ccc([N+](=O)[O-])cc1 [Compound 1f, N-(3-(4-Nitrophenyl)propyl)dodecan-1-amine]	0.4
